From BindingDB's records for doi:10.1016/j.bioorg.2016.11.007 (University of Karachi, 2017) come the findings set out here.

By UniProt entry, the sequences of proteins in these tests, tags left out. Where a name states a change or a piece, a line headed by the entry shows the natural chain unless it says otherwise.
UniProt P07650: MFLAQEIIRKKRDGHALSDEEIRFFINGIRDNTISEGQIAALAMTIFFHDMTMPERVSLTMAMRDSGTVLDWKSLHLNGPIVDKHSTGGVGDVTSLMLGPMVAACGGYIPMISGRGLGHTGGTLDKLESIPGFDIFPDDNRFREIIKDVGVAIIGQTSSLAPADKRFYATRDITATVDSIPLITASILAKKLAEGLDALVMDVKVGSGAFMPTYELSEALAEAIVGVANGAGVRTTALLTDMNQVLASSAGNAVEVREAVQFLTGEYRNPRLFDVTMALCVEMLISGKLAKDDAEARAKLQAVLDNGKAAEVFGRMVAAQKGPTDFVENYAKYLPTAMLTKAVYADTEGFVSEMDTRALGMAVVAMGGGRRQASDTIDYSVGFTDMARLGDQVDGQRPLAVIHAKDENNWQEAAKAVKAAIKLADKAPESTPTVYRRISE

For the test, the target named is Thymidine phosphorylase (Escherichia coli (strain K12), UniProt P07650). The experiment in a line: Kinetic Assay. Particulars: 30 °C. On the procedure:
In kinetic assay, the TP enzyme (0.058 U/well) was incu- bated with different concentrations of inhibitor (0.5 0.001 mM) for 10 min at 30 C. The reaction was then initiated by adding different concentrations of substrate (0.1875 1.5 mM). Degradation of thymidine was measured continuously at 290 nm for 10 min on ELISA plate reader [Bera et al., Chem. Biol. Drug Des., 82:351-360].

As to `O=c1[nH]c(=O)c2cc[nH]c2[nH]1` [1,7-Dihydro-pyrrolo[2,3-d]pyrimidine-2,4-dione], the Ki (usually the equilibrium dissociation constant of an inhibitor or competing ligand from its target) is 49.1 µM.
